Results on 1 compound are retold here after patent publication US9193762B2, “Selective inhibitors of prolylcarboxypeptidase” (UNIVERSITY OF MISSISSIPPI, priority 2010, dated 2015).

Each structure is given as a SMILES string.

Experiment [1] deals with nitric oxide formation on HPAEC.
Experiment [2] deals with prostacyclin (PGI2) generation on HPAEC. The settings on record: 100 μM, HPAEC with HK/PK. The procedure:
The absorbance was measured spectrophotometrically at 405 nm.

In the case of `CCCCCCCCCCCCNC(=O)[C@@H]1CCCN1C(=O)[C@@H]1CCCN1.Cl` [RS-33-21, (S)—N-dodecyl-1-((S)-pyrrolidine-2-carbonyl)pyrrolidine-2-carboxamide hydrochloride], the “PRCP-induced NO formation (in words)” value in experiment [1] is “inhibited PRCP-induced NO formation”. In addition, the “reduction of NO production” value in experiment [1] (100 μM, HPAEC with HK/PK) was found to be 80%. For the same compound, in experiment [2], the “reduction of PGI2 production” value turned out to be 80%.
